The assay addresses Neuronal acetylcholine receptor; alpha4/beta4 (Rattus norvegicus, UniProt P09483+P12392). Put plainly: Displacement of [3H]epibatidine from rat neuronal acetylcholine receptor subunit alpha4beta4 expressed in HEK293 cell membranes incubated for 4 hrs by scintillation counting method.

The pKi is the negative decadic logarithm of the Ki, by convention in mol/L. A low value points to a high Ki.

In turn, `CNC(=O)OCCC(C)N(C)C` (stereo unspecified) came in with a negative logarithm of the Ki (pKi) of 5.

Values taken from ChEMBL document CHEMBL3621161, “Conformationally restrained carbamoylcholine homologues. Synthesis, pharmacology at neuronal nicotinic acetylcholine receptors and biostructural considerations” (Eur J Med Chem, 2015).
